pIC50: −log10 of the molar value.
Biological target: T1, Recombinant human COOH-terminal His6-tagged endothelin converting enzyme-1 (Homo sapiens, UniProt P42892)
T1 construct: His6 (C); purchased Innogenetics, Ghent, Belgium; host or cells: Sf9 cells
T1 sequence (P42892 1-770): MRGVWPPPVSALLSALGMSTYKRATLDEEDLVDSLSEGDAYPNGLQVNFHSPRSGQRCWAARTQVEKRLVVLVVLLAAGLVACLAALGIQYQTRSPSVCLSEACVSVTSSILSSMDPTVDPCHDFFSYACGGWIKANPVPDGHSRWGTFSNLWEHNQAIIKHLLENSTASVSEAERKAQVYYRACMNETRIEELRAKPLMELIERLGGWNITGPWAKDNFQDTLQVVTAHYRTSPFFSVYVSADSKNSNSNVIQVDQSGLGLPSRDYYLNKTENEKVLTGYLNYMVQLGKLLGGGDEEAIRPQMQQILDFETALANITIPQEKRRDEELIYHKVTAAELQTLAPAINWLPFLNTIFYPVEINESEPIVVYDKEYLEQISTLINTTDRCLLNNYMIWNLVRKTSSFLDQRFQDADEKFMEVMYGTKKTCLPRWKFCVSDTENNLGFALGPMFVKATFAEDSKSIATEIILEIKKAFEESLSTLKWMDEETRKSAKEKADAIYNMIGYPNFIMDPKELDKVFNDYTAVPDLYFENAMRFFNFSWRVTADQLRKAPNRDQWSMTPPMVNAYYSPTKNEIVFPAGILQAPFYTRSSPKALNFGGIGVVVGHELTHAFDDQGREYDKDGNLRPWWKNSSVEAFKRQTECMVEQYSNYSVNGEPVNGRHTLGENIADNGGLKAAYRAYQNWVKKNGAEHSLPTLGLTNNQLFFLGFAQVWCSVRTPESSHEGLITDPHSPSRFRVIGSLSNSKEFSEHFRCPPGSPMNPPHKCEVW
Experiment: ECE enzyme inhibition assay (17 amino acid truncated big endothelin-1, HPLC)
Type: biochemical

Cc1nn(-c2ccccc2)c(NC(=O)NS(=O)(=O)c2ccc(Cl)cc2)c1C#N.[Na] [monosodium salt]
pIC50: 7.93
